According to patent US8404742B2, “Diosmetin compounds, a process for their preparation and pharmaceutical compositions containing them” (Les Laboratories Server, priority 2008, dated 2013):

Test system: Vascular Cell Adhesion Molecule 1 (VCAM-1)
Experiment: In vivo inhibition of the expression of VCAM-1 in aorta of diabetic ApoE-/- mice (real-time PCR)
Conditions: 130 mg/kg/day in the food for 6 weeks, untreated = 100%, n=8

Q: Which “level of VCAM-1 expression relative to the untreated mice” value does the source give for `C=C(C)Cc1c(-c2cc(=O)c3c(O)c(CC(=C)C)c(O)c(CC(=C)C)c3o2)ccc(OC)c1O` [Example 1, 6,8,2′-Tris(isobut-2-en-1-yl)diosmetin] here?
A: 65.9±10.1%
